Here are results for one compound from ChEMBL document CHEMBL3352282, “Design and synthesis of novel azapeptide activators of apoptosis mediated by caspase-9 in cancer cells” (Bioorg Med Chem Lett, 2014).

A word on the EC50: it is the concentration giving half of the maximal effect.

Assay [1] deals with MDA-MB-231. In words: Induction of cell death in serum starved human MDA-MB-231 cells at 100 uM after 16 hrs by trypan blue dye exclusion assay. It is filed as functional. In a few lines:
(§1)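 Breast cancer line serum-starved 6 h, then exposed to compound (DMSO vehicle) for 16 h at a final 50 µM or 100 µM. Cells trypsinized, stained with Trypan blue and counted. Cell death expressed as percentage, relative to vehicle. Mean ± SEM of three independent experiments, paired comparison to DMSO control.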

Assay [2] deals with MDA-MB-231. In words: Induction of apoptosis in serum starved human MDA-MB-231 cells assessed as caspase-9 activation at 100 uM after 16 hrs by Western blotting method. It is filed as functional, cell-based. The method in brief: (§2)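 MDA-MB-231 cells serum-starved 6 h, then exposed to DMSO vehicle, etoposide, AVPI-NH₂ or analogs at one final concentration (50 or 100 µM, per line), harvested; caspase-3 and caspase-9 activation assessed by Western blotting. Quantification as mean ± SEM of three independent experiments.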
In general terms: A western blot detects proteins with antibodies after separation by electrophoresis.

Assay [3] relates to MDA-MB-231. In words: Induction of apoptosis in serum starved human MDA-MB-231 cells assessed as caspase-3 activation at 100 uM after 16 hrs by Western blotting method. It counts as functional, cell-based. In a few lines: as §2
Assay [4] relates to MDA-MB-231. The experiment in a line: Induction of cell death in serum starved human MDA-MB-231 cells at 50 uM after 16 hrs by trypan blue dye exclusion assay. It counts as functional. The method in brief: as §1
Assay [5] concerns MDA-MB-231. In words: Induction of apoptosis in serum starved human MDA-MB-231 cells assessed as caspase-9 activation after 16 hrs by Western blotting method. Particulars: MDA-MB-231, 16 h. It is filed as functional, cell-based. The method in brief:
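MDA-MB-231 cells serum-starved 6 h, treated 16 h across a concentration series (about 12.5–125 µM), harvested; total and cleaved caspase-9 immunoblotted and quantified. Mean ± SEM of two independent experiments; significance versus paired DMSO condition.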

Activity calls are given as the source filed them. No cut-off for these calls is given here.

As to `CC[C@H](C)[C@H](NC(=O)[C@@H]1CCCN1C(=O)[C@@H](NC(=O)[C@H](C)N)C(C)C)C(N)=O`, the Activity is 50% with MDA-MB-231 [1] and 11.5% in the assay with MDA-MB-231 [4]. Besides, the outcome in the assay on MDA-MB-231 [2] and in the assay with MDA-MB-231 [3] was Active. In addition, the EC50 in the assay with MDA-MB-231 [5] is 72.7 µM.
